Laboratory results taken from ChEMBL document CHEMBL5620417, “N-aryltetrahydroisoquinoline derivatives as HA-CD44 interaction inhibitors: Design, synthesis, computational studies, and antitumor effect” (Eur J Med Chem, 2023).

Sequences of proteins named here, by UniProt entry; tags and fusion partners are left off. A change or cut given only in a name is not applied to a line headed by its entry.
UniProt P16070: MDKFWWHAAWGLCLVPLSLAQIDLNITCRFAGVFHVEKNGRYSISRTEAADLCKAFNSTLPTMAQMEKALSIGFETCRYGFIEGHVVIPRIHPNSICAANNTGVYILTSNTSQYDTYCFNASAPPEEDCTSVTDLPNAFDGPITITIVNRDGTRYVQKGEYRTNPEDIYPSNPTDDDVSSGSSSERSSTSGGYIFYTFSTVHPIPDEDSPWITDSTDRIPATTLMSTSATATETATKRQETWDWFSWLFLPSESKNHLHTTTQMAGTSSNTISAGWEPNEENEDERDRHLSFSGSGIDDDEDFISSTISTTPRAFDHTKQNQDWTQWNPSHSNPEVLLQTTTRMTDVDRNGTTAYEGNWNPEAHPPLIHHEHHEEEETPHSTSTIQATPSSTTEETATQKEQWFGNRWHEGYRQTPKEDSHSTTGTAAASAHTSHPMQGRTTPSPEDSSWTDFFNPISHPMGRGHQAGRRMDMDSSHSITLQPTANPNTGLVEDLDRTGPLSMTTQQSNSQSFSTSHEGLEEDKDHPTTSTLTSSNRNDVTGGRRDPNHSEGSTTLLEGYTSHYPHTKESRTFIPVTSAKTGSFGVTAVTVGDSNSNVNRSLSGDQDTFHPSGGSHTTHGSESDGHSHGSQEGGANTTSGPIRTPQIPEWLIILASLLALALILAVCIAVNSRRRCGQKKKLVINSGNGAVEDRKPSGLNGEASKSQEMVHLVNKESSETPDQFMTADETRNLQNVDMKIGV

target: CD44 antigen (Homo sapiens) (UniProt P16070); experiment: Displacement of HA-FITC from CD44 in human MDA-MB-231 cells assessed as fold decrease in fluorescent intensity at 120 ug/ml incubated for 45 mins by competitive binding assay based flow cytometric analysis; assay type: cell-based; settings: dose 120.0 µg/ml

Structure (SMILES) | fold change (FC)
COc1cc(CN2CCc3c(N)cccc3C2)cc(OC)c1OC | 1.8
CC(=O)CCN1CCc2ccccc2C1 | 1.3
COc1cc(CN2CCc3c(Br)cccc3C2)cc(OC)c1OC | 1.5
